Each molecule was assayed against T1, MMP-1 (Homo sapiens, UniProt P03956) (assay: biochemical). Conditions: MMP-1 IC50.
T1 sequence (P03956 100-469): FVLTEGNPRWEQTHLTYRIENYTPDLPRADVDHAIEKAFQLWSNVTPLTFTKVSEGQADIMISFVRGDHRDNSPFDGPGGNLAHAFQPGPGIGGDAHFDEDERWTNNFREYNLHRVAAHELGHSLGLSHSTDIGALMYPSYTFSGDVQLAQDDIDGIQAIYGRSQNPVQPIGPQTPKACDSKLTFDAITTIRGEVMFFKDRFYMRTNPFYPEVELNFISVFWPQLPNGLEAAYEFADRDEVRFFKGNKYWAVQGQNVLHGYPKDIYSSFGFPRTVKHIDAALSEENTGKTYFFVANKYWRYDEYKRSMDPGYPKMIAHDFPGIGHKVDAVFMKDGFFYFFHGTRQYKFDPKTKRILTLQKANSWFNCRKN

`COc1ccc(S(=O)(=O)N(Cc2ccccc2)c2c(C(=O)NO)cnc3cc(Br)ccc23)cc1` [Example 14, 4-[Benzyl-(4-methoxy-benzenesulfonyl)-amino]-7-bromo-quinoline-3-carboxylic acid hydroxyamide] and `COc1ccc(S(=O)(=O)N(Cc2ccccc2)c2c(C(=O)NO)cnc3c(C)cccc23)cc1` [Example 18, 4-[Benzyl-(4-methoxybenzenesulfonyl)-amino]-8-methyl-quinoline-3-carboxylic acid hydroxyamide] are within 1.5-fold of each other in IC50: 0.108 µM for the first, 0.152 µM for the second.

`COc1ccc(S(=O)(=O)N(Cc2ccccc2)c2c(C(=O)NO)cnc3ccc(C(F)(F)F)cc23)cc1` [Example 15, 4-[Benzyl-(4-methoxy-benzenesulfonyl)-amino]-6-trifluoromethyl-quinoline-3-carboxylic acid hydroxyamide] and `COc1ccc(S(=O)(=O)N(Cc2cccnc2)c2c(C(=O)NO)cnc3cc(C(F)(F)F)ccc23)cc1` [Example 16, 4-[(4-Methoxybenzenesulfonyl)-pyridin-3-ylmethylamino]-7-trifluoromethyl-quinoline-3-carboxylic acid hydroxyamide] are within 1.5-fold of each other in IC50: 0.139 µM for the first, 0.099 µM for the second.

Work on `CCc1cccc2c(N(Cc3ccccc3)S(=O)(=O)c3ccc(OC)cc3)c(C(=O)NO)cnc12` [Example 19, 4-[Benzyl-(4-methoxybenzenesulfonyl)-amino]-8-ethyl-quinoline-3-carboxylic acid hydroxyamide] yielded an IC50 of 0.194 µM.
